Measurements: ChEMBL document CHEMBL1133013, “Structure-activity relationships and pharmacokinetic analysis for a series of potent, systemically available biphenylsulfonamide matrix metalloproteinase inhibitors” (J Med Chem, 2000)

Protein sequences, listed by entry. Tags and fused reporters are not part of them. Lines headed by an entry give the natural chain unless they say otherwise; changes in a name come on top.
UniProt P08253: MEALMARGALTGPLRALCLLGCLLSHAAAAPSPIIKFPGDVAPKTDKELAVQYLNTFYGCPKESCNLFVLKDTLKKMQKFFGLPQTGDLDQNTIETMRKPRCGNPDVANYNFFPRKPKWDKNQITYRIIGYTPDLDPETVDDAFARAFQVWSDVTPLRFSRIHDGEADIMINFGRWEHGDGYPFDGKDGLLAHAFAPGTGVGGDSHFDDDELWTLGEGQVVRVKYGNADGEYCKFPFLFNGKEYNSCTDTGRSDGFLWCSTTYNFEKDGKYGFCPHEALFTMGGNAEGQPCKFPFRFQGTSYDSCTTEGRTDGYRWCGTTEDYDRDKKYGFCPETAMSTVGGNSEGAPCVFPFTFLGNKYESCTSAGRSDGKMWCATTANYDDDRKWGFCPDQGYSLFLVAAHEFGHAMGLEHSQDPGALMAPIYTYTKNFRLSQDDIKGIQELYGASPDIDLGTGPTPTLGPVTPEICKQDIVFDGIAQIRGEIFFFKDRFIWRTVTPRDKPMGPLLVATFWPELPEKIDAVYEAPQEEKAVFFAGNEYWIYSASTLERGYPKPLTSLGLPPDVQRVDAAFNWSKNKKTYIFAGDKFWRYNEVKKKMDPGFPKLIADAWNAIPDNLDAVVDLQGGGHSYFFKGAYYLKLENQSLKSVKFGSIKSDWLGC

biological target: 72 kDa type IV collagenase (Homo sapiens, UniProt P08253); experiment: In vitro inhibition of matrix metalloprotease-2 (MMP-2)

Going from `CC(C)[C@H](NS(=O)(=O)c1ccc(-c2ccc([N+](=O)[O-])cc2)cc1)C(=O)O` to `CC(C)[C@H](NS(=O)(=O)c1ccc(-c2ccc(Br)cc2)cc1)C(=O)O`, the IC50 falls from 61 nM to 4 nM (15-fold).

Compared with `CC(C)[C@H](NS(=O)(=O)c1ccc(-c2ccc(N)cc2)cc1)C(=O)O`, `CC(C)[C@@H](NS(=O)(=O)c1ccc(-c2ccc(Br)cc2)cc1)C(=O)O` is 7.2-fold lower in IC50: 36 nM for the first, 5 nM for the second. The second is the more potent here.
